One data set relates to Caki-1 cells. The data set is described as follows: In vitro cytotoxicity of T lymphocytes cultured with peptide-pulsed dendritic cells against Caki-1. In kind it is cell-based, human. The note with it: cord blood-derived T lymphocytes cultured with dendritic cells exposed to the peptide.
Another data set deals with LNCaP cells. The procedure:
(§1) An exemplary in vitro cytotoxicity assay comprises the following steps. Antigen presenting cells, such as dendritic cells, were obtained from bone marrow or blood. Dendritic cells were preferentially differentiated in culture through the addition of IL-4, GM-CSF, and TNFα for 7-10 days. Dendritic cells were then pulsed with peptides for 18 hours. MNCs were also isolated from spleens or blood (e.g., cord or peripheral) and cultured in IL-2 and GM-CSF for 7-10 days for enhanced lymphocyte proliferation. The pulsed dendritic cells were then co-cultured with the lymphocyte-enriched MNCs at a 1:10 ratio for 4 days. Lymphocyte-enriched MNC effector cells were then co-cultured with tumor target cells labeled with the bioactive fluorescent dye Calcein AM for 4 hours. Lysed cells were detected by photometrically measuring the released fluorescent dye.
(§2) Certain prostate carcinomas express prostate-specific membrane antigen (PSMA). […] The fusion peptides were administered to APCs which were subsequently presented to a lymphocyte-enriched population from cord blood as described hereinabove in Example 6. […] In vitro cytotoxicity against the human prostate cancer cell line LNCaP was then assessed using the bioactive fluorescent dye calcein AM (FIG. 11D).

The test system of data set [1] is P815S (HBsAg transfectant) target cells. In words: HBsAg-specific CTL response of immunized mice, 51Cr-release cytotoxicity assay. The class given is in vivo, BALB/c mice. The note with it: s.c. in PBS. How it is done:
Groups of six to eight BALB/c mice were given bilateral s.c. injections in the inguinal area with (100 al each side) of a PBS solution containing 50-100 μg of the peptides. Booster injections were given s.c. in the inguinal region at 21-day intervals. Sera for Ab analysis were obtained by retro-orbital bleeds of mice under CO2 narcosis.
Three weeks after secondary) (2° immunization and two weeks after tertiary)(3° immunization, two to three mice from each experimental group were sacrificed by cervical dislocation and their spleens removed aseptically. Pooled splenic single-cell suspensions were prepared in RPMI-1640 medium (Sigma, St. Louis, Mo.) containing 10% FBS (Hyclone, Salt Lake City, Utah) and the following supplements: 10 mM HEPES buffer, 50 μM 2-ME, 2 mM L-glutamine, 50 μg/ml gentamicin sulfate, 100 Um′ penicillin, and 50 μg/ml streptomycin (all supplements from Sigma). This supplemented complete medium is designated RP10-SC. For culture, 75×10^6 pooled spleen cells in 5 ml of RP10-SC were pipetted into a 25 cm^2 T-flask (Corning). Next, 5 ml of RP 10-SC containing 150 nM of synthetic, L^d MHC class I-restricted peptide, […] (SEQ ID NO:12) were added to the flask. The flasks were incubated undisturbed in an upright position at 37° C. in 5% CO2. After 4 days of incubation, the cells were recovered from the T-flasks, washed once by centrifugation in fresh RP10-SC, resuspended in 5 ml RP10-SC, counted, and adjusted to 5×10^6 viable cells/ml.
The specific cell target used for measuring CTL activity was P815S, a transfectant cell line of P815 (H-2^d) expressing the HBsAg (14). P815S was grown in RP10-SC medium containing 400 μg/ml geneticin disulfate (G418, Sigma). The parental H-2^d mastocytoma cell line, P815 (ATTC #TIB64) grown in RP10-SC medium, was used as a non-specific target for CTL assays to measure % non-specific lysis.
The target cells, either P815S or P815, were washed 2 times in RP10-SC. For labeling, 5×10^6 target cells were mixed with 250 μCi ^51Cr-sodium chromate[400-1200 Ci (14.8-44.4 TBq)]/[…]; NEN Dupont, Boston, Mass.) in a 1.0 ml volume in a 50 ml conical tube and incubated in a 37° C. water bath for 90 mins. After incubation, the labeled cells were washed 3 times by centrifugation using 15 ml volumes of fresh RP10-SC and allowed to stand at room temperature for 30 mins. The pelleted cells were resuspended in RP10-SC at 1×10^6 cells/ml.
The recovered splenic effector cells at 5×10^6 cells/ml were serially diluted in triplicate in wells of round-bottom 96 well plates (Corning, 25850) in a total volume of 100 al/well and using RP10-SC as the diluent. […] The amount of ^51Cr radioactivity in the supernatant fractions was measured using a Wallac 1470 Wizard gamma counter (Turku, Finland).

Data set [2] deals with A-375 cell line (melanoma). The class given is cell-based, human. The procedure: The tumor peptide antigen tyrosinase is expressed on more than 70% of human melanoma cells that are human leukocyte antigen (HLA) A2 positive. […] The dendritic cells, presumably expressing the tyrosinase epitope, were then cultured with a lymphocyte-enriched cell population which was then cultured with melanoma cells to determine melanoma cell killing using a cytotoxic T lymphocyte assay.

The subject of another data set is MUC1 epitope peptide. In words: Serum antibody response to MUC1 epitope peptide in immunized mice (RIA). The settings on record: 100 μg i.p. with RIBI adjuvant, three immunizations, sera at 6 weeks. In kind it is in vivo, C57B16 and Balb/c mice. The source says:
The strains of mice used for this example were inbred females 6 to 12 week old C57B16(H-2^b) and Balb/c (H-2^d), which were obtained from Jackson labs (Bar Harbor, Me.). […] The MUC1 peptide selected for these studies contained a motif that may bind to the H-2K^b molecule of the C57B16 mice; therefore, a strain of mouse that lacked this class I molecule binding motif (Balb/c) was also studied to determine the relative contribution of the class I binding motif to the antigen presentation properties of these peptides.
Preimmune sera were obtained from mice, which were subsequently immunized intraperitoneally with 100 μg of the indicated peptide with RIBI adjuvant (MPL+TDM+CWS) (Sigma Immunochemicals). Animals were boosted twice at two week intervals using the same injection procedure. Sera were obtained following three immunizations (at 6 weeks).
For radioimmunoassay (RIA), anti-peptide antibodies were determined, before and at different time points after immunization, in 96-well microtiter plates (Dynatech Laboratories, Inc.). Plates were coated with 50 μl of a 100 μg/ml appropriate peptide in phosphate-buffered saline (PBS) pH 7.4 solution overnight at 4° C. […] Anti-peptide antibody titers were determined using serial dilutions of sera. […] After washing, specific radioactivity was recorded in a gamma counter (1272 CliniGamma, LKB). […]

The subject of the next data set is BEAS-2B epithelial cells. In words: In vitro cytotoxicity of T lymphocytes cultured with peptide-pulsed dendritic cells against BEAS-2B. The note with it: cord blood derived T lymphocytes; cells do not express PSMA. How it is done: as §1, §2
The subject of another data set is human umbilical artery. In words: Smooth muscle contraction of human umbilical artery. The class given is cell-based. The note with it: −log EC50 (M), mean ± SE, n=3. How it is done: Statistical analysis of the values obtained from pharmacologic assays was performed using one-way analysis of variance (ANOVA).

Consider `CSCC[C@H](NC(=O)[C@@H]1CCCN1C(=O)[C@H](CCCCN)NC(=O)[C@H](Cc1ccccc1)NC(=O)[C@H](CO)NC(=O)[C@@H](N)Cc1ccc(O)cc1)C(=O)N1CCC[C@H]1C(=O)N[C@@H](CC(C)C)C(=O)N[C@H](C)C(=O)N[C@@H](CCCNC(=N)N)C(=O)O`, for which, in the data set on Caki-1 cells, the “cytotoxicity against tyrosinase-negative Caki-1 (in words)” value is recorded as “incapable of killing”. In addition, the “cytotoxicity against LNCaP (in words)” value in the data set on LNCaP cells is listed as “did not exhibit significant cytotoxicity”. Also, the “% Specific Lysis” value in data set [1] (Effector:Target 6.25:1, boost day 21, spleen cells day 42) is recorded as 1%; in data set [1] (Effector:Target 12.5:1, boost day 21, spleen cells day 42), 0%; in data set [1] (Effector:Target 25:1, boost day 21, spleen cells day 42), 2%; in data set [1] (Effector:Target 50:1, boost day 21, spleen cells day 42, restimulated 4 days with S28-39), 1%. In addition, the “cytotoxicity against A-375 (in words)” value in data set [2] is “not cytotoxic”. The “antibody response (in words)” value in the data set with MUC1 epitope peptide is “no appreciable increase in antibody response”. Moreover, in the data set with BEAS-2B epithelial cells, the “cytotoxicity against BEAS-2B (in words)” value is on record as “not cytotoxic”. In the data set with human umbilical artery, the “pD2 ± SE” value is 6.99 ± 0.22.

Source of the values: patent publication US20150218516A1, “COMPOSITIONS AND METHODS FOR ENHANCING IMMUNE RESPONSES MEDIATED BY ANTIGEN-PRESENTING CELLS” (The Board of Regents of the University of Nebraska, priority 2007, published 2015).
